{"source": "paper PMC3539664", "about": "“Convergent synthesis and evaluation of ^18F-labeled azulenic COX2 probes for cancer imaging” (Frontiers in Oncology, 2013)", "molecular_target": "T1, ovine COX2 (Ovis aries, UniProt P79208)", "T1 construct": "purchased Cayman", "T1 sequence (P79208 17-603)": "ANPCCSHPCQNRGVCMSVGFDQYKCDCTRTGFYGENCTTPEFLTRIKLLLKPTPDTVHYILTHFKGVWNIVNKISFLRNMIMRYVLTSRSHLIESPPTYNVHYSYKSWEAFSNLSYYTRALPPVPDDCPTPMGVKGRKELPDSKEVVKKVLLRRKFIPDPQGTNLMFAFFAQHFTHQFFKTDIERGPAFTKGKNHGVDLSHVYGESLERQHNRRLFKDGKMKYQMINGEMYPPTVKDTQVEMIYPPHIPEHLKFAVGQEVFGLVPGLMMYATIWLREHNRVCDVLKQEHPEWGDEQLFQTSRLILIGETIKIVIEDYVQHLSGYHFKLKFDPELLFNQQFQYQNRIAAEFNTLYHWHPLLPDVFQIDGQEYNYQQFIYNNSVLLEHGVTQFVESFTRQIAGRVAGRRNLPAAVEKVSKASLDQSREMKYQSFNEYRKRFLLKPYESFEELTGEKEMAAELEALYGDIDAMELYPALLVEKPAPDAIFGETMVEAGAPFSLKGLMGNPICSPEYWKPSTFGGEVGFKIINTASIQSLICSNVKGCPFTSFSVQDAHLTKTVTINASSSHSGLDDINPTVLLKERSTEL", "test": "Colorimetric COX inhibitor screening assay (Cayman kit), IC50 assay", "type": "biochemical", "settings": "10 duplicate concentrations (Figure 2)", "data": [{"smiles": "CS(=O)(=O)c1ccc(-c2cc(Br)sc2-c2ccc(F)cc2)cc1", "note": "[DuP697]", "values": [{"measurement": "Hill slope of the inhibition curve", "value": -1.0}]}]}
